Experimental data taken from patent publication US7547806B2, “Tannate salt of rasagiline” (Teva Pharmaceutical Industries, Ltd., priority 2006, dated 2009).

Legend:
[1] = compared with other salts of rasagiline
[2] = Water content by Karl Fischer method (KF); type: physicochemical; conditions: solid product
Protocol: (§1) Thermal gravimetric analysis (TGA) was applied for measuring amounts of volatiles (residual solvents and water) in the solid. Water content was measured by Karl Fischer method (KF).

[3] = Water content by thermal gravimetric analysis (TGA); type: physicochemical; conditions: solid product
Protocol: as §1

[4] = Hygroscopicity after one month storage in closed containers; type: physicochemical; design: key: 1: non-hygroscopic, no visible change observed; 2: slightly hygroscopic, aggregation and lumping developed, loss of flowability; 3: hygroscopic, semi-solid material; 4: deliquescent, liquefied syrup-like product; conditions: after one month in closed containers at room temperature in atmospheric air (relative humidity ~50-80%)
Protocol: The hygroscopicity was determined after one month in closed containers at room temperature in atmospheric air (relative humidity ˜50-80%)
The observed samples could be divided into four groups in accordance to their hygroscopic properties:
1=non-hygroscopic, no visible change observed
2=slightly hygroscopic, aggregation and lumping developed, loss of flowability
3=hygroscopic, semi-solid material
4=deliquescent, liquefied syrup-like product

Substance | Water solubility [1] | Water content, % By KF [2] | Water content, % By TGA [3] | Hygroscopicity [4]
rasagiline tannate | low water solubility | – | – | –
rasagiline tannate [Example 3] | – | 3.4% | 3.4% | 1
rasagiline tannate [Example 4] | – | 4.5% | 5.2% | 1
